Assay results reported in ChEMBL document CHEMBL3739358 (J Med Chem, 2015).
pEC50: −log10 of the molar value.

Chains of the proteins cited; added tags and fusions are not shown.
UniProt P14416, whole entry: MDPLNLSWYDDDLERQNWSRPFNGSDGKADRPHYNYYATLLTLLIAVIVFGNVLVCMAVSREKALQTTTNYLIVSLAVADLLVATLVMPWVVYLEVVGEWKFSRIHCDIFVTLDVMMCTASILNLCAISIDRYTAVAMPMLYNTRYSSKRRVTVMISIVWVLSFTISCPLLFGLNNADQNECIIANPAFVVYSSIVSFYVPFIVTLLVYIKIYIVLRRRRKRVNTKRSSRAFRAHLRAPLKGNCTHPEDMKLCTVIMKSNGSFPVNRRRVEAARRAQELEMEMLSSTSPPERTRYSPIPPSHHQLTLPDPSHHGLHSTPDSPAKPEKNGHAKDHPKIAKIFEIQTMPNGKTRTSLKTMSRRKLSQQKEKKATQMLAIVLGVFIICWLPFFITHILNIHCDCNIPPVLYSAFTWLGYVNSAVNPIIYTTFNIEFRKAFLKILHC

Target: D(2) dopamine receptor (Homo sapiens, UniProt P14416)
Assay: Agonist activity at human D2 receptor expressed in CHO cells by [35S]GTPgammaS binding assay
Assay type: functional, cell-based

CCCN1CCC[C@@H](c2cccc(O)c2)C1 [PRECLAMOL]
pEC50: 6.79
